## Membrane permeability of cyclic peptides

Values of Townsend et al. 2020, doi:10.26434/chemrxiv.13335941.v1, as listed in CycPeptMPDB.

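Conditions beyond the assay type are not listed; see the original paper. The list need not hold all peptides of the study. Entries at the database's floor value (log10 P of -10) are not listed.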

PAMPA measures passive passage through an artificial lipid membrane.
Values are log10 P with P in cm/s, so -5 is more permeable than -7.

compound	PAMPA (log10 cm/s)
CCCN1CC(=O)N(C)[C@@H](CC(C)C)C(=O)N(C)[C@@H](CC(C)C)C(=O)N2CCC[C@@H]2C(=O)N[C@@H](CC(C)C)C(=O)N[C@@H](Cc2ccccc2)C(=O)N2CCC[C@@H]2C1=O	-5.58
CC(C)C[C@@H]1C(=O)N(Cc2ccccc2)CC(=O)N2CCC[C@H]2C(=O)N(C)[C@H](CC(C)C)C(=O)N[C@@H](Cc2ccccc2)C(=O)N[C@H](C)C(=O)N1C	-5.89
CC(C)C[C@@H]1NC(=O)[C@@H]2CCCN2C(=O)C[C@H](Cc2ccccc2)NC(=O)[C@@H](CC(C)C)N(C)C(=O)[C@@H](C)NC(=O)[C@H]2CCCN2C(=O)[C@H](Cc2ccccc2)NC1=O	-6.25
CC(C)C[C@@H]1NC(=O)[C@H]2CCCN2C(=O)[C@@H](CC(C)C)N(C)C(=O)[C@H](CC(C)C)NC(=O)[C@H](C)N(C)C(=O)[C@H]2CCCN2C(=O)[C@H](Cc2ccccc2)NC1=O	-5.72
CC(C)C[C@@H]1NC(=O)[C@@H](C)N(C)C(=O)[C@H](Cc2ccccc2)NC(=O)[C@H](CC(C)C)NC(=O)[C@H]2CCCN2C(=O)C[C@H](Cc2ccccc2)NC1=O	-6.17
CC(C)C[C@@H]1C(=O)N(Cc2ccccc2)CC(=O)N2CCC[C@H]2C(=O)N[C@H](CC(C)C)C(=O)N[C@@H](Cc2ccccc2)C(=O)N2CCC[C@@H]2C(=O)N[C@@H](Cc2ccccc2)CC(=O)N1C	-5.58
CC(C)C[C@@H]1NC(=O)C[C@H](Cc2ccccc2)NC(=O)[C@H](Cc2ccccc2)NC(=O)[C@@H](CC(C)C)N(C)C(=O)[C@@H]2CCCN2C(=O)[C@@H](CC(C)C)N(C)C1=O	-5.19
CC(C)C[C@H]1C(=O)N[C@@H](Cc2ccccc2)C(=O)N2CCC[C@@H]2C(=O)N[C@H](C)C(=O)N(C)[C@@H](CC(C)C)C(=O)N(Cc2ccccc2)CC(=O)N2CCC[C@@H]2C(=O)N1C	-6.25
CCCN1CC(=O)N(C)[C@H](CC(C)C)C(=O)N(C)[C@@H](CC(C)C)C(=O)N2CCC[C@H]2C(=O)N(C)[C@@H](CC(C)C)C(=O)N[C@@H](Cc2ccccc2)C(=O)N2CCC[C@@H]2C1=O	-4.96
CC(C)C[C@@H]1NC(=O)C[C@H](Cc2ccccc2)NC(=O)[C@H](Cc2ccccc2)NC(=O)[C@@H](CC(C)C)NC(=O)[C@@H]2CCCN2C(=O)C[C@H](Cc2ccccc2)NC1=O	-5.73
CC(C)C[C@@H]1NC(=O)[C@H](C)NC(=O)[C@H]2CCCN2C(=O)[C@H](Cc2ccccc2)NC(=O)[C@@H](CC(C)C)N(C)C(=O)[C@@H]2CCCN2C(=O)[C@H](CC(C)C)N(C)C1=O	-6.17
CC(C)C[C@@H]1NC(=O)[C@H](CC(C)C)N(C)C(=O)[C@@H](C)NC(=O)[C@H]2CCCN2C(=O)[C@H](Cc2ccccc2)NC(=O)[C@H](CC(C)C)N(C)C(=O)[C@H]2CCCN2C1=O	-5.72
CC(C)C[C@H]1NC(=O)C[C@H](Cc2ccccc2)NC(=O)[C@H]2CCCN2C(=O)[C@H](Cc2ccccc2)NC(=O)[C@H](CC(C)C)N(C)C(=O)[C@@H]2CCCN2C(=O)C[C@H](Cc2ccccc2)NC1=O	-5.63
CC(C)C[C@H]1NC(=O)C[C@H](Cc2ccccc2)NC(=O)[C@H](Cc2ccccc2)NC(=O)[C@H](CC(C)C)N(C)C(=O)[C@H]2CCCN2C(=O)C[C@H](Cc2ccccc2)NC1=O	-5.63
CC(C)C[C@@H]1C(=O)N[C@@H](Cc2ccccc2)C(=O)N2CCC[C@@H]2C(=O)N(C)[C@H](C)C(=O)N[C@H](CC(C)C)C(=O)N(C)[C@@H](CC(C)C)C(=O)N2CCC[C@H]2C(=O)N1C	-5.20
CC(C)C[C@@H]1C(=O)N(C)[C@@H](CC(C)C)C(=O)N2CCC[C@@H]2C(=O)N(C)[C@H](CC(C)C)C(=O)N[C@@H](Cc2ccccc2)C(=O)N2CCC[C@@H]2C(=O)N[C@@H](C)C(=O)N1C	-5.01
CCCN1CC(=O)N(C)[C@@H](CC(C)C)C(=O)N[C@H](CC(C)C)C(=O)N2CCC[C@H]2C(=O)N(Cc2ccccc2)CC(=O)N[C@@H](Cc2ccccc2)C(=O)N2CCC[C@H]2C1=O	-5.30
CC(C)C[C@@H]1NC(=O)[C@@H](C)N(C)C(=O)[C@H](Cc2ccccc2)NC(=O)[C@H](CC(C)C)N(C)C(=O)[C@@H]2CCCN2C(=O)CN(Cc2ccccc2)C1=O	-5.07
CC(C)C[C@@H]1NC(=O)[C@@H]2CCCN2C(=O)[C@@H](CC(C)C)NC(=O)CN(Cc2ccccc2)C(=O)C[C@H](Cc2ccccc2)NC(=O)[C@H]2CCCN2C(=O)[C@H](Cc2ccccc2)NC1=O	-5.93
CC(C)C[C@@H]1NC(=O)[C@H](C)NC(=O)[C@H](Cc2ccccc2)NC(=O)[C@H](CC(C)C)N(C)C(=O)[C@H]2CCCN2C(=O)[C@@H](CC(C)C)N(C)C1=O	-5.11
CC(C)C[C@@H]1C(=O)N(C)[C@@H](CC(C)C)C(=O)N2CCC[C@@H]2C(=O)N(Cc2ccccc2)CC(=O)N[C@@H](Cc2ccccc2)C(=O)N[C@@H](C)C(=O)N1C	-5.28
CC(C)C[C@@H]1C(=O)N(C)[C@H](CC(C)C)C(=O)N2CCC[C@@H]2C(=O)N(C)[C@H](CC(C)C)C(=O)N[C@@H](Cc2ccccc2)C(=O)N2CCC[C@@H]2C(=O)N[C@@H](Cc2ccccc2)CC(=O)N1C	-5.47
CCCN1CC(=O)N[C@H](CC(C)C)C(=O)N[C@@H](CC(C)C)C(=O)N2CCC[C@H]2C(=O)N(Cc2ccccc2)CC(=O)N[C@@H](Cc2ccccc2)C(=O)N2CCC[C@H]2C1=O	-5.85

The 2 highest values of PAMPA among the entries above:

compound	PAMPA (log10 cm/s)
CCCN1CC(=O)N(C)[C@H](CC(C)C)C(=O)N(C)[C@@H](CC(C)C)C(=O)N2CCC[C@H]2C(=O)N(C)[C@@H](CC(C)C)C(=O)N[C@@H](Cc2ccccc2)C(=O)N2CCC[C@@H]2C1=O	-4.96
CC(C)C[C@@H]1C(=O)N(C)[C@@H](CC(C)C)C(=O)N2CCC[C@@H]2C(=O)N(C)[C@H](CC(C)C)C(=O)N[C@@H](Cc2ccccc2)C(=O)N2CCC[C@@H]2C(=O)N[C@@H](C)C(=O)N1C	-5.01